{"source": "patent US5334589A", "about": "“Quinolone carboxylic acid--metal ion--acid complexes” (Abbott Laboratories, priority 1992, dated 1994)", "system": "rat tail vein", "conditions": "in vivo, iv, 100 mg/kg/day"}
{"substance": "1-(2,4-difluorophenyl)-6-fluoro-1,4-dihydro-7-(3-methyl-1-piperazinyl)-4-oxo-3-quinoline carboxylic acid HCl--Mg--choline [Example 14]", "values": [{"measurement": "Normalized Rank", "value": 3.67}, {"measurement": "Total Rank", "value": 88}]}
